Laboratory results as given in US11485741B2.

Chains of the proteins cited; added tags and fusions are not shown. Residues count along the entry.
UniProt Q9NYK1, 27-1049 limits assumed: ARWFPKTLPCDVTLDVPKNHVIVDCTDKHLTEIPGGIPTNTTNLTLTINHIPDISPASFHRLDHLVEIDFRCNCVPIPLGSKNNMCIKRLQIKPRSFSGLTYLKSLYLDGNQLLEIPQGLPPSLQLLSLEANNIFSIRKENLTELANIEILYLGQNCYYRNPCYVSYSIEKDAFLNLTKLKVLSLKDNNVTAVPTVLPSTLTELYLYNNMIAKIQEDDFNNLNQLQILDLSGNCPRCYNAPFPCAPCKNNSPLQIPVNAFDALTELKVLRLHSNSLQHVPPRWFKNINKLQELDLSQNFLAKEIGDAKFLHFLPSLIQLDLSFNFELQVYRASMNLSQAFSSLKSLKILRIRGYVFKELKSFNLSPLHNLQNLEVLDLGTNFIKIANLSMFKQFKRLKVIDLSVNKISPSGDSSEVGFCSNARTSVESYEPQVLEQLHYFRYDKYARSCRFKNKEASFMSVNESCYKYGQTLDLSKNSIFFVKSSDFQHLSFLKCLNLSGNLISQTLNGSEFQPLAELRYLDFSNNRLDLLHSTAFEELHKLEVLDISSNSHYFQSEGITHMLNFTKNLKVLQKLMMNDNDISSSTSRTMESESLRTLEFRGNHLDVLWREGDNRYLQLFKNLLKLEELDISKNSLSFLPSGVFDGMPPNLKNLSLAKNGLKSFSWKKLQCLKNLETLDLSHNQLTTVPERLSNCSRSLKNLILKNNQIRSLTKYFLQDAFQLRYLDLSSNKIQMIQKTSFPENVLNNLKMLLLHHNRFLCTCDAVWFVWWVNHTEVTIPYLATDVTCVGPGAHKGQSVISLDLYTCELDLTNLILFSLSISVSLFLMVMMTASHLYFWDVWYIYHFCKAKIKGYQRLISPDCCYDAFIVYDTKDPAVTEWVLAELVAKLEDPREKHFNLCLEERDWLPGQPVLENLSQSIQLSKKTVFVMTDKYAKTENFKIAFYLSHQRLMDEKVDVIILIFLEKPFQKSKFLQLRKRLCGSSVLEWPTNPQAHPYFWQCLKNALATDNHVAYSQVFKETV

How the values were obtained:
interleukin 6 (IL-6) = assay: Interleukin 6 induction assay in human whole blood (AlphaLISA); type: cell-based; conditions: read-out: IL-6 Induction EC50 (nM) (normalized 10 μM), 20 h at 37° C., 100% set by resiquimod reference at 10 μM, average if more than one assay
human TLR7 = human TLR7 (Homo sapiens, UniProt Q9NYK1)

EC50 (human TLR7) [nM]	Compound	EC50 (interleukin 6 (IL-6)) [nM]
0.32	Nc1nc2nc3c1nc(O)n3Cc1ccc(-c3ccc(CN[C@H]4C[C@H](O)C4)cc3)c(c1)C/C=C\CCO2	1.5
0.76	Nc1nc2nc3c1nc(O)n3Cc1ccc(-c3ccc(CNC4C5CC4C5)cc3)c(c1)C/C=C\CCO2 (stereo not drawn)	1.3
8.9	Nc1nc2nc3c1nc(O)n3Cc1ccc(Oc3ccc(CNC4CCC4)cc3)c(c1)C/C=C/CCO2	6.6
